Earlier results in US20240343692A1 (priority 2021, published 2024).

Amino acid sequences for entries named in this document (tags omitted).
UniProt P41595, whole entry: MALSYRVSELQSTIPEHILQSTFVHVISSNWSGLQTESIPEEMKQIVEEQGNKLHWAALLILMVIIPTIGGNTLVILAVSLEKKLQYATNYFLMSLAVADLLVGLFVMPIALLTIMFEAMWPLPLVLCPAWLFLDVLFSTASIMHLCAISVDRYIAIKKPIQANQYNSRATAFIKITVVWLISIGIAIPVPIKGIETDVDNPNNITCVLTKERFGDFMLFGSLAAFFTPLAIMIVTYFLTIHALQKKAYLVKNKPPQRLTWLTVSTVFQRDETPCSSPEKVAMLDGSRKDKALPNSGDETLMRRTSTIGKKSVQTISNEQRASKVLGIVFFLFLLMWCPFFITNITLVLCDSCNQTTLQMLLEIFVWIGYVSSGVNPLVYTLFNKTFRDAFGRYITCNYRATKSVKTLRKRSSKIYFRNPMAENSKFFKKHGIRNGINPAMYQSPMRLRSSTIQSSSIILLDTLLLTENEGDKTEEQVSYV

Biological target: Serotonin 5-HT2B (Homo sapiens, UniProt P41595)
Details: read-out: activation potency EC50, Serotonin 5-HT2B; data from ref. 36; cited from earlier work

Question: With `CN(C)CCc1c[nH]c2cccc(O)c12` [Psilocin] as the compound, how does the pEC50 read?
Answer: < 4.70

pEC50: −log10 of the molar value.
